# Entries after “also recorded” stand apart in the source; their conditions may differ.
# System: penicillin rat epilepsy model (high-amplitude electric discharges, HAED)
# Assay: Penicillin model of epilepsy: effect on the electrical activity of the brain
# Format: in vivo
# Conditions: sodium valproate 600 mg/kg ip, rats
# Description: Experiments were carried out on male Wistar rats with a body weight of 180-250 g. Under isoflurane anesthesia (1.5%), surgical preparation for the experiment is performed. Urethane ([…]) is used for anesthesia during the experiment. Next, the animal is fixed in a stereotactic installation. 2×2 mm holes are drilled in the skulls of animals over symmetrical areas of the sensorimotor cortex of the brain and a 16-channel silicon-based probe (Neuronexus) is installed with a step of 100 μm between the recording electrodes to divert electrical activity from these areas. A silver chloride electrode, which serves as a combined ground electrode and a reference electrode, is introduced into the cerebellum or the visual cortex to a depth of 2-3 mm. To create a focus of epileptic activity in parallel to the somatosensory zones, 2×2 mm holes are drilled in the area of the visual cortex, into which 10 μl of a solution of sodium salt of benzylpenicillin are applied at a concentration of 40,000 IU/ml. […] The amplitude-frequency characteristics of epileptiform activity are evaluated. As a comparison substance, sodium valproate 600 mg/kg is used, which is administered ip in the presence of stable epileptiform activity. […] The significance of differences between populations is evaluated by the Mann-Whitney U-test. […]
smiles,measurement,value
CCCC(CCC)C(=O)[O-].[Na+] [sodium valproate],suppression of HAED,does not completely suppress HAED; also recorded: does not lead to a complete suppression of HAED

# — patent US10844018B2, “Pyridoxine derivative for treatment of epilepsy” (AO “TATKHIMFARMPREPARATY”, priority 2017, dated 2020)
